According to patent publication US7498404B2, “Compositions, methods and uses for a novel family of peptides” (priority 2004, dated 2009):

Assays:
aminopeptidase M = details: purified BT1583 (Fraction 33)
[1] = mouse, in vivo
[2] = in vivo

Substance: Me2Bmt-L-dO-I-V-V-dK-V-dL-K-dY-L-Vol [BT1583]
- degradation by aminopeptidase M (aminopeptidase M): resistant
- digestion in the GI track [1]: not digested
- absorption by the chicken GI track [2]: no or very little absorption
- digestion in the GI track [2]: not digested

Like-named read-outs stand apart in the source and are kept apart here.
